# Species on record: Homo sapiens
# Assay: Selectivity ratio of IC50 for DDX39A (unknown origin) expressed in Escherichia coli BL21(Rosetta 2) to IC50 for eIF4A1 (unknown origin) expressed in Escherichia coli BL21(DE3)
smiles,measurement,value
CC(C)=C[C@@H]1C[C@H](C)c2c(O)cc(C)c3c2C1=C(C)C(=O)C3=O [ELISABATIN A],Ratio IC50,20

# Reference: ChEMBL document CHEMBL4043127, “ATP-competitive, marine derived natural products that target the DEAD box helicase, eIF4A” (Bioorg Med Chem Lett, 2017)
